{"source": "patent US20100233131A1", "about": "“SELENIUM DEDIFFERENTIATED CELL, PREPARATION METHOD AND USAGE THEREOF” (PUSAN NATIONAL UNIVERSITY INDUSTRY-UNIVERSITY COOP, priority 2008, published 2010)", "key": {"[1]": {"system": "adipose tissue stromal cells (ATSCs)", "test": "Cell viability / proliferation of ATSCs by trypan blue exclusion"}, "ATSCs [2]": {"system": "ATSCs", "test": "Cell migration assay using transwell membrane in vitro", "type": "cell-based, human", "details": "5 ng/ml selenium 3 days, vs control ATSCs, time-dependent", "method": "The cells were then treated with selenium (5 ng/ml) for 3 days. The cultured cells were transferred into Costar transwell membrane (8 μm pore size), and placed on 6-well plates. Under the membrane, selenium and a 2% FBS-containing α-MEM medium were added to each well. In an upper chamber, the cells were incubated in a 2% FBS-containing α-MEM medium at 37° C. for 2 hours, and the plates were incubated overnight at 37° C. in a CO2 incubator. The cells on the lower surface of the plate were dried, counterstained with Harris hematoxylin for 20 minutes, and then washed. The stained inserts were placed on an object slide, and the number of cells was counted under a 200× inverted bright field microscope. The cell counts were repeatedly estimated to ten bright fields under the 200× microscope, and their average was calculated. The migration was represented as the count of cells per field of the spontaneous migration which was non-specifically determined."}, "ATSCs [3]": {"system": "ATSCs", "test": "Oligonucleotide microarray analysis of gene expression", "type": "cell-based, human", "details": "control ATSCs vs selenium-treated ATSCs", "method": "To confirm the pattern of gene expression, oligonucleotide microarray analysis was performed."}}, "data": [{"smiles": "O=[Se]([O-])[O-].[Na+].[Na+]", "note": "[selenium, sodium selenite]", "values": [{"measurement": "concentration of selenium that induces cytotoxicity", "setting": "[1]", "value": "more than 20 ng/ml"}, {"measurement": "proliferation efficiency of the ATSCs", "setting": "[1]; 5 ng/ml selenium for 3 days, trypan blue exclusion", "value": "significant increase"}, {"measurement": "migration efficiency", "setting": "ATSCs [2]", "value": "significantly increased"}, {"measurement": "share of total genes with more than 2.2-fold difference in expression level", "setting": "ATSCs [3]", "value": "less than 6%"}]}]}
